Literature values, collected in article PMC2989597 (Current topics in medicinal chemistry, 2009).
pEC50: −log10 of the molar value.

Tested on: TSHR
Conditions: read-out: EC50 concentration; cAMP accumulation, HEK-EM 293 cells stably expressing TSHR; cited from earlier work

For TSH: thyroid stimulating hormone, the pEC50 is listed as 8.74.
